The target in experiment [1] is guinea pig histamine H4 receptor (Cavia porcellus, UniProt Q91ZY3). Briefly: biochemical.
Experiment [2] addresses rat histamine H4 receptor (Rattus norvegicus, UniProt Q91ZY1). The experiment in a line: biochemical.

The chains behind the UniProt entries cited, without tags or fusion partners. Where a name states a change or a piece, a line headed by the entry shows the natural chain unless it says otherwise. Residues count along the entry.
UniProt Q91ZY3, 1-389: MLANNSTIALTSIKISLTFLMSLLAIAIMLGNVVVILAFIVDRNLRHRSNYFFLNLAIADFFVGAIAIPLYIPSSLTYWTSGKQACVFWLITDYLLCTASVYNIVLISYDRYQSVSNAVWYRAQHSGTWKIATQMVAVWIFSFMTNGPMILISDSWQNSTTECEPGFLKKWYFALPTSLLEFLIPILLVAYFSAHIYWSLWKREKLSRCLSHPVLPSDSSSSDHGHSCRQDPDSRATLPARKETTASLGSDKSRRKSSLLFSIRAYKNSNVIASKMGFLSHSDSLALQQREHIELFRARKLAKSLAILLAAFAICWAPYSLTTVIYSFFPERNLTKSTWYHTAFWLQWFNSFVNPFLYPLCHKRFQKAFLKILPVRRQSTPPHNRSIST
UniProt Q91ZY1: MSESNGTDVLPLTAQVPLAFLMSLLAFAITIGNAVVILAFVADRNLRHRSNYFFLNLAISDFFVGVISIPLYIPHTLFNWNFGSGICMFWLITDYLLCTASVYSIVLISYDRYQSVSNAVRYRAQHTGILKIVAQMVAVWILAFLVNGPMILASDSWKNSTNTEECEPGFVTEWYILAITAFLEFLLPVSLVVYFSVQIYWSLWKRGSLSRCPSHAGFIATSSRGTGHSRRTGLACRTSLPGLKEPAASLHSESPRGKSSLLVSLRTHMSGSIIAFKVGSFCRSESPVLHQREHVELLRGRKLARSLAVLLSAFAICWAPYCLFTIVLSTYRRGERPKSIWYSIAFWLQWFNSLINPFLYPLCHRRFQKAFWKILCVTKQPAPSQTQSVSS

By Ki is commonly meant the dissociation constant of the complex between target and ligand, obtained from inhibition or displacement. Turning to `CNC(=S)NCCCCc1cnc[nH]1` [Burimamide], the Ki turned out to be 840 nM in experiment [1] and 958 nM in experiment [2].

The record behind these values is patent US20030133931A1 (priority 2001, published 2003).
